From US20150292023A1, “Materials and Methods Related to NSAID Chemoprevention in Colorectal Cancer” (priority 2011, published 2015)

Tested on: VpC^+/+ (wild type) mice
Details: mouse, in vivo
Experimental: Cohorts of equivalent gender Msh2^flox/floxVpC^+/+ mice were treated with NSAIDs including ASA that were mixed with powdered diet and administered ad libitum. VpC^+/+ (Msh2^++) mice were similarly examined to control for potentially confounding effects of continuous Cre expression in the intestine. Kaplan-Meier survival analyses were generated for each NSAID treatment (FIG. 2).

Question: How did the “survival of wild type mice (in words)” value turn out when “nitric oxide-donating sulindac [NO-Sulindac]” was run?
Answer: significant reduce the survival of the wild type mice
